Values quoted from earlier work in article PMC5663926, “In vivo near-infrared imaging of ErbB2 expressing breast tumors with dual-axes confocal endomicroscopy using a targeted peptide” (Scientific Reports, 2017).

Tests used:
[1] = tested on: human BT474 xenograft breast tumors; details: in vivo; cited from earlier work
Protocol: ErbB2 antibodies are being used clinically to detect breast cancer metastases in vivo with whole-body imaging methods, such as PET and SPECT[13],[14]. Other targeting ligands are being evaluated in pre-clinical models. Antibody fragments, such as the Fab component of trastuzumab, have been radiolabeled with^111In, and used to visualize human BT474 xenograft breast tumors as early as 24 hours post-injection[35]. By comparison, we were able to detect peak signal with an ErbB2 peptide at 1 hour post-injection. Affibody molecules are small, stable non-immunoglobulin scaffold-based proteins that ha ...

ErbB2 = details: cited from earlier work
Description: Commonly used clinically for breast cancer therapy, this antibody has recently been repurposed to visualize ErbB2 expression using PET and SPECT[13],[14]. Antibodies are bulky in size, and have limited usefulness for diagnostic imaging because of slow binding kinetics, long circulatory half-life, and increased background. Performance can also be impaired by slow tumor localization, heterogeneous distribution, and inadequate concentration, while immunogenicity can limit repeated use. We have de ...

Row | Substance | earliest time of tumor visualization [1] | affinity and specificity for ErbB2 (ErbB2)
1 | Fab component of trastuzumab | 24 h | –
2 | trastuzumab: monoclonal antibody against ErbB2 | – | high affinity and specificity
